{"source": "patent US20260217706A1", "about": "“HETEROCYCLIC COMPOUNDS, PREPARATION METHOD THEREFOR AND USE THEREOF” (GUANGZHOU YUFAN NANTU BIOTECHNOLOGIES CO., LTD, priority 2023, published 2026)", "system": "anti-CD3 activated human PBMCs", "test": "Effect of compounds on the level of IL-2 secretion by anti-CD3 activated human PBMCs (IL-2 ELISA)", "format": "cell-based", "experimental": "2. Inoculate the resuspended cells into a 96-well cell culture plate at 200 ul/well of cell suspension, and incubate in a 37° C. cell incubator for 1 h;\n3. Adjust the compound concentration with DMSO, starting at a final concentration of 3 μM, and perform a 3-fold dilution sequentially for 10 concentration gradients, with an additional DMSO control well set up; and\n4. Adjust the CD3 antibody to an appropriate concentration to achieve a final concentration of 2 μg/mL, mix thoroughly, and incubate in a 37° C. cell incubator for 48h.\n5. After 48 h, centrifuge at 1500 rpm for 5 min to collect the supernatant of the culture medium for the human IL-2 ELISA test.\nThe OD values obtained from the ELISA test are converted into the fold change (FC) in IL-2 concentration. […] The EC50 is calculated using GraphPad Prism. When the fold change=5, the corresponding compound concentration is CFC=5 (in nM)."}
{"smiles": "C[C@H]1CCCN(Cc2cc3c(C(F)(F)F)cn(-c4cccc([C@]5(c6nncn6C)C[C@@H](C)C5)c4)c(=O)c3[nH]2)C1", "note": "[Compound T058, 6-(3-((1s,3R)-3-methyl-1-(4-methyl-4H-1,2,4-triazol-3-yl)cyclobutyl)phenyl)-2-(((S)-3-methylpiperidin-1-yl)methyl)-4-(trifluoromethyl)-1,6-dihydro-7H-pyrrolo[2,3-c]pyridin-7-one]", "values": [{"measurement": "IL-2 CFC=5/nM", "value": "<500", "unit": "nM"}]}
